Biological target: T1, murine COX-II (Mus musculus, UniProt Q05769)
T1 sequence (Q05769 18-604): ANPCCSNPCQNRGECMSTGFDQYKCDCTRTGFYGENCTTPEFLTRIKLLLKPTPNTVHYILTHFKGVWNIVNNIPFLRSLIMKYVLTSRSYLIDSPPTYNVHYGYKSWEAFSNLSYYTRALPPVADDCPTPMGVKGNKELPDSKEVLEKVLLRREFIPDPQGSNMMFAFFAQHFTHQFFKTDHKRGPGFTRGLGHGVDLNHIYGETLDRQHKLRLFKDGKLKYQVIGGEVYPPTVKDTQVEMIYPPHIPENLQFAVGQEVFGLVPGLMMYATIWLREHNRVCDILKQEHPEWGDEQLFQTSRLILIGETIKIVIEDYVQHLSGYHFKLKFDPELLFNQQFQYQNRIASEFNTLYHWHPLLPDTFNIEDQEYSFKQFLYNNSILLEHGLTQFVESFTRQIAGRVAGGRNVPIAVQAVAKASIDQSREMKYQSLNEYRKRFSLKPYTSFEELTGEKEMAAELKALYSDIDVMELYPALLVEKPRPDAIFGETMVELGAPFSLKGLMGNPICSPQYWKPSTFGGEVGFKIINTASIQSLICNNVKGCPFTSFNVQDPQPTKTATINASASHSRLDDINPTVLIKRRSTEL
Assay: biochemical

IC50: 100 nM
SMILES: CS(=O)(=O)c1ccc(-c2sc(COc3ccc(Cl)cc3)nc2-c2ccc(F)cc2)cc1 [Example 1, 2-((4-Chlorophenoxy)methyl)-4-(4-fluorophenyl)-5-(4-methylsulfonylphenyl)thiazole]
